Data: US8809619B2, “Knockout mice for a P450 gene cluster” (ITI Scotland Limited, priority 2007, dated 2014)

Details: C57BL/6J

SMILES: CO[C@H]1/C=C/O[C@@]2(C)Oc3c(C)c(O)c4c(O)c(c(/C=N/N5CCN(C)CC5)c(O)c4c3C2=O)NC(=O)/C(C)=C\C=C\[C@H](C)[C@H](O)[C@@H](C)[C@@H](O)[C@@H](C)[C@H](OC(C)=O)[C@@H]1C [rifampicin]
- Liver/Body weight ratio, % mean of corresponding strain control (RIF 60 mg/kg 3 daily doses, +/- % SD): (112 +/− 11) %
- Liver/Body weight Ratio × 100 (RIF 60 mg/kg IP 3 daily doses, mean +/- SD, n=4): 5 +/− 0.5
